Experimental data reported in patent US9284317B2, “Substituted imidazo[1,2-a]pyrazines as MPS-1 inhibitors” (Bayer Intellectual Property GmbH, priority 2010, dated 2016).

Protein sequences, listed by entry. Tags and fused reporters are not part of them. Lines headed by an entry give the natural chain unless they say otherwise; changes in a name come on top.
UniProt P33981: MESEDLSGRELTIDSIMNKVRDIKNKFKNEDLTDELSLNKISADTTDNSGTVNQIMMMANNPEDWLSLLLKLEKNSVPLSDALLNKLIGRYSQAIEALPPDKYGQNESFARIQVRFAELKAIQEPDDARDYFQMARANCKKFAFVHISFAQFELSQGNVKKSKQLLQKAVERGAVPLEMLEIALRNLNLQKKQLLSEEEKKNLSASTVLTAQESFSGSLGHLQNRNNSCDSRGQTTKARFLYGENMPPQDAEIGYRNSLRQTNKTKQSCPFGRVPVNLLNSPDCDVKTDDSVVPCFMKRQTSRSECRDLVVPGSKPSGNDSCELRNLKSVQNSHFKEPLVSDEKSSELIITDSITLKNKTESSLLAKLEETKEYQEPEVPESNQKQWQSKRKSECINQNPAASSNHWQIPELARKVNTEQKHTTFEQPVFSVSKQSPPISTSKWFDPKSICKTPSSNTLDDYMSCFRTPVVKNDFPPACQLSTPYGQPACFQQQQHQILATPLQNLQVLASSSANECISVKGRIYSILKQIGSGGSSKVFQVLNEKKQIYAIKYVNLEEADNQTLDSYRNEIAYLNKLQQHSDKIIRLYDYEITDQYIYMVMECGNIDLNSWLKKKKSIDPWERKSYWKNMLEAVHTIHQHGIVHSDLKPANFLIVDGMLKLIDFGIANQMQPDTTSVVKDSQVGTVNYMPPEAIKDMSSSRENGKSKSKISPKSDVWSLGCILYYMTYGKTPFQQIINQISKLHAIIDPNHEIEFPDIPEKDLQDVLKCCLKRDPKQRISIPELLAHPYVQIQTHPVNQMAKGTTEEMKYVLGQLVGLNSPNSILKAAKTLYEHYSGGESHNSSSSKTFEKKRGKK

Target: human kinase Mps-1 (N-terminally GST-tagged human full length recombinant Mps-1 kinase) (Homo sapiens (Human), UniProt P33981)
Test: Mps-1 Kinase Assay (TR-FRET)
Format: biochemical
Details: 10 μM ATP, 1 μM biotinylated peptide substrate, 60 min at 22° C., read-out: Mps1 IC50
Method: The human kinase Mps-1 phosphorylates a biotinylated substrate peptide. Detection of the phosphorylated product is achieved by time-resolved fluorescence resonance energy transfer (TR-FRET) from Europium-labelled anti-phospho-Serine/Threonine antibody as donor to streptavidin labelled with cross-linked allophycocyanin (SA-XLent) as acceptor. Compounds are tested for their inhibition of the kinase activity.
N-terminally GST-tagged human full length recombinant Mps-1 kinase (purchased from Invitrogen, Karslruhe, Germany, cat. no PV4071) was used. As substrate for the kinase reaction a biotinylated peptide of the amino-acid sequence […] (C-terminus in amide form, purchased from Biosynthan GmbH, Berlin) was used.
The concentration of Mps-1 in the assay was adjusted to the activity of the enzyme lot and was chosen appropriate to have the assay in the linear range, typical enzyme concentrations were in the range of about 1 nM (final conc. in the 5 μl assay volume).
The resulting mixture was incubated 1 h at 22° C. to allow the binding of the phosphorylated peptide to the anti-phospho(Ser/Thr)-Europium-antibody. Subsequently the amount of phosphorylated substrate was evaluated by measurement of the resonance energy transfer from the Europium-labelled anti-phospho(Ser/Thr) antibody to the Streptavidin-XLent.

IC50: 1 nM
Compound: CC(C)CNc1nc(-c2ccc([S+]([O-])C3CC3)cc2)cn2c(-c3ccc(C(=O)NC4CC4)cc3)cnc12 (racemic) [Example 3-1, (RS) N-cyclopropyl-4-{6-[4-(cyclopropylsulfinyl)phenyl]-8-(isobutylamino)imidazo[1,2-a]pyrazin-3-yl}benzamide]
